Reference: article PMC2778353, “Toxicity of Xanthene Food Dyes by Inhibition of Human Drug-Metabolizing Enzymes in a Noncompetitive Manner” (Journal of Environmental and Public Health, 2009)

Molecular target: T1, UGT1A6 (Homo sapiens, UniProt P19224)
T1 sequence (P19224 27-532): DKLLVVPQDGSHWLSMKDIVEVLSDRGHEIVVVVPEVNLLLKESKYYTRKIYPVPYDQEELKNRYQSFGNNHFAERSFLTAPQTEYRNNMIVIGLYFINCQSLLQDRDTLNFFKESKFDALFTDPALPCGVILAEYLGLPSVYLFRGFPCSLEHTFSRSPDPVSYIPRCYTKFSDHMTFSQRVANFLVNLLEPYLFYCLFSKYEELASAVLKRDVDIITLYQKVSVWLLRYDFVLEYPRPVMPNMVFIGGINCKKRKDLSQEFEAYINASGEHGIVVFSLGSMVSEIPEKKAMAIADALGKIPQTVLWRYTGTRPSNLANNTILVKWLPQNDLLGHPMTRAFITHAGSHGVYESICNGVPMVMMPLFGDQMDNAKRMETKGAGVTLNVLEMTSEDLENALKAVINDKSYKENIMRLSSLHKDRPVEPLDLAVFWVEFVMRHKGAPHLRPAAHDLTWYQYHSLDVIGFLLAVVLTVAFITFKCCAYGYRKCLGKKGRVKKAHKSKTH
Experiment: Inhibition of UGT1A6 activity (glucuronidation of p-nitrophenol) in pooled human liver microsomes

In the case of `O=S(=O)([O-])c1cc(S(=O)(=O)[O-])c2c(N=Nc3ccc(S(=O)(=O)[O-])c4ccccc34)c(O)ccc2c1.[Na+].[Na+].[Na+]` [New coccine (NC), new coccine], the “Inhibition of UGT1A6 activity (in words)” value is reported as “insignificant inhibition”.
